AlphaSeq binding of Ab-95 light chain variants to a spike HR2 peptide

Data: MIT Lincoln Laboratory AlphaSeq set, Engelhart et al. 2022, doi:10.1038/s41597-022-01779-4, as distributed in FLAb.

Antigen: PDVDLGDISGINAS, a 14-residue peptide of the SARS-CoV-2 spike HR2 region.

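The starting antibody came from a phage panning campaign against this peptide. Library AAYL52 holds single substitutions and randomly drawn double and triple substitutions in the CDRs. Affinity was read by AlphaSeq, a pooled yeast mating assay with surface-displayed partners. Binding brings cells together so that they mate, and sequencing counts the barcode pairs among the diploids. Scores were corrected for input abundance and mapped to Kd with protein pairs of known affinity run in the same pool. Each pool was mated in three replicate cultures.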

The variants keep the heavy chain, the linker and the frameworks of Ab-95 (scFv order VH, a (GGGGS)3 linker, VL).
VH: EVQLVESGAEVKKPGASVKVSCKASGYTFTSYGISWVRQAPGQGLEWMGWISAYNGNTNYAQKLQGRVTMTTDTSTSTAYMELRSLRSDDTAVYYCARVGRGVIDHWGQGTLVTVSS
VL: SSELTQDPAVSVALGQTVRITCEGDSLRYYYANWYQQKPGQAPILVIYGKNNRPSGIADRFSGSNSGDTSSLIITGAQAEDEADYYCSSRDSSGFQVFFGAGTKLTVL

Substitutions are numbered in sequence along the VL above, starting at 1 (not Kabat).
Affinities are written as log10 Kd with Kd in nM; a lower number is a better binder.
"nd" marks a missing value. The strain was present, yet no cells mated with the target were sequenced in that replicate, which points to weak or no binding.
Three control strains display no target. For library AAYL52, 28% of the pairings with them gave a signal, with a median of 3.91 and one signal in twenty below 2.90, so weak values seen in few replicates may be background. For each scFv, signals with the empty controls are counted beside the result, with their mean in brackets.

changes,log10 Kd (nM) by replicate,control signals
R28I+Y29P+V97A,3.59 / 3.86 / 3.09,8/9 (4.10)
G94F+F98W,2.37 / 3.83 / 2.54,3/9 (4.09)
S26M+Y30K+F95K,2.91 / 5.70 / 2.68,3/9 (3.92)
L27D+A32M,3.77 / 3.44 / 2.87,1/9 (2.79)
E23H+N52S+V97A,nd / 2.95 / nd,3/9 (3.22)
K50V+N52G+D91C,3.07 / 2.72 / 2.55,4/9 (4.50)
Y31T+N52Y,2.34 / 2.84 / 2.71,2/9 (4.03)
L27A+S88L+F95H,5.69 / nd / nd,1/9 (4.32)
E23T+N52E+G94F,3.02 / 2.16 / 2.02,2/9 (4.76)
R53I+S55I+G94F,nd / nd / nd,3/9 (4.34)
R28D+K50A+G94N,2.69 / 2.90 / 2.89,3/9 (3.72)
S26N+R90Q+S92I,3.78 / nd / 3.13,2/9 (4.03)
D25M+R28G+S55Q,2.93 / 2.78 / 3.00,6/9 (3.95)
L27P+Y30T+A32M,2.87 / 2.06 / 1.68,1/9 (2.63)
D91Q+Q96V+F98S,nd / nd / nd,1/9 (4.78)
S89M+Q96V,2.63 / 2.37 / 1.99,1/9 (3.24)
G49S+R90V+V97L,nd / 3.92 / 3.46,0/9
D91C+S93K+V97S,nd / nd / nd,0/9
Y31D+N33R+K50Y,2.15 / 2.40 / 1.81,1/9 (3.56)
G49K+N52Y+Q96F,4.88 / 5.25 / nd,1/9 (4.04)
D25W+Y29V+S92G,4.36 / 5.20 / nd,5/9 (4.38)
Y31L+R90M+S93T,3.45 / 3.00 / 4.19,0/9
N52A+D91E+V97H,3.03 / 2.98 / nd,2/9 (3.92)
S26L+K50P+P54A,4.05 / 4.99 / nd,0/9
Y30R+Y31N+N51H,3.16 / nd / 2.88,1/9 (5.18)
N51E+S93L+G94I,3.45 / 3.34 / nd,1/9 (4.38)
D25C+Y31D+V97H,1.88 / 1.82 / 1.22,3/9 (4.09)
D25T+P54D+R90H,3.67 / 3.67 / nd,5/9 (4.22)
R28H+Y29P+S88D,3.18 / 3.15 / 3.72,4/9 (4.21)
L27D+S93I+G94E,3.63 / nd / nd,3/9 (3.81)
D25I+K50G+G94I,nd / nd / nd,0/9
R53K+P54T+S93F,nd / 4.39 / 3.58,3/9 (3.74)
G24E+L27C+N33K,nd / nd / nd,0/9
Y31S+S55P+F95H,3.33 / nd / 3.13,1/9 (4.98)
E23Y+Y31F+S55R,2.98 / 2.80 / 2.77,1/9 (3.73)
Y30R+S88C+S92Q,2.35 / 2.18 / 2.02,2/9 (4.51)
Y29W+N51L+S93F,3.99 / nd / nd,2/9 (3.45)
Y29E+Y31M+S93M,1.81 / 2.04 / 1.95,2/9 (3.17)
R28G+S55A,2.18 / 1.96 / 2.26,2/9 (2.96)
G24F+D25Q+Y30D,2.17 / 2.65 / 2.71,0/9
V97G,2.14 / 2.11 / 1.64,2/9 (4.32)
A32L+F95V+F98A,4.37 / 4.23 / nd,3/9 (4.23)
D25C+R53F+S92R,3.41 / 3.79 / 4.25,4/9 (4.35)
K50V+S89A+R90N,3.07 / 3.06 / 2.26,0/9
S88E+V97M,1.94 / 1.91 / 1.97,3/9 (3.84)
G24W+D25K+N51D,nd / nd / nd,2/9 (4.01)

Repeated from above, the 2 best binders with a signal in all replicates:

{"changes": "D25C+Y31D+V97H", "log10 Kd (nM) by replicate": "1.88 / 1.82 / 1.22", "control signals": "3/9 (4.09)"}
{"changes": "Y29E+Y31M+S93M", "log10 Kd (nM) by replicate": "1.81 / 2.04 / 1.95", "control signals": "2/9 (3.17)"}

Parent in this assay: reference entry 2.31, copy in this library 2.25.